Only a part is listed here, and it is no random draw. Activity calls are given as the source filed them.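 How the source made its calls: active means compounds whose signal lies at least 3.5 SD above the mean of all wells on their plate; inactive means the rest.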

We go through 67 compounds from PubChem BioAssay AID2380 (Sanford-Burnham Center for Chemical Genomics, 2010).

The test can be described thus: small molecules increasing insulinoma cell replication – ATP luminescence, uHTS, primary screen (AID 2380).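 Further: 0% = DMSO-treated cells in low-serum medium and 100% = 10% serum control.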 As to conditions: MIN6 cells proliferation, ATPlite luminescence, 48 h; at 10 µM; stronger effect = higher value; 100% = growth in 10% serum; cells starved in 0.2% serum.
Turning to `CC(C)c1ccc(NC2CCN(C(=O)OC(C)(C)C)CC2)cc1`, the proliferation is inactive: -2.16%.

For `CN(C)c1cccc(C(=O)NCC2(N3CCCCC3)CCCCC2)c1`, the proliferation was inactive: -1.91%. The value for `COc1ccc(CN(CCCl)CCCl)cc1Cl` was inactive: -3.6%; that for `O=C(NCC1(N2CCOCC2)CCCCC1)c1cc(F)c(F)cc1Cl` was inactive: 1.3%. The result for `COc1cc(OC)c(C(=O)NCC2(N(C)C)CCCCC2)cc1OC` reads inactive: -4.21%. The value for `CN1CCC(Nc2cccc(F)c2)CC1` was inactive: 1.42%; that for `O=C(NCC1(N2CCCCC2)CCCCC1)c1cncc(Br)c1` was inactive: -4.01%; that for `O=C(NCC1(N2CCCCC2)CCCCC1)c1ccc(OC(F)F)cc1` was inactive: -0.67%. As for `N#CC1(Nc2ccccc2)CCN(CCc2ccccc2)CC1`, the proliferation is inactive: -3.51%. The result for `CCN1CCC(Nc2ccc(Cl)cc2)CC1` reads inactive: -0.05%; that for `CSc1ccc(C(=O)NCC2(N3CCOCC3)CCCCC2)cc1`, inactive: -1.96%.

In the case of `O=C(NCC1(N2CCCCC2)CCCCC1)c1cccc([N+](=O)[O-])c1`, the proliferation is inactive: -0.41%. For the compound `O=C(NCC1(N2CCCCC2)CCCCC1)c1cccc(C(F)(F)F)c1`, the proliferation was inactive: 6.76%. The result for `COc1cc(C(=O)NCC2(N3CCCCC3)CCCCC2)ccc1OC(F)F` reads inactive: 2.26%. For `O=C(NCC1(N2CCOCC2)CCCCC1)c1cc(=O)[nH]c2ccccc12`, the proliferation was inactive: 1.46%. The result for `CN1CCN(CCOC(=O)C(O)(c2ccccc2)c2ccccc2)CC1` reads inactive: 0%; that for `CC(C)c1ccc(C(=O)NCC2(N3CCOCC3)CCCCC2)cc1`, inactive: -6.68%.

Regarding `COc1ccc(NC2CCN(C(=O)OC(C)(C)C)CC2)cc1`, the proliferation is inactive: -1.97%. The value for `CCOc1ccc(C)cc1CN(CCCl)CCCl` was inactive: 0.42%.

Regarding `COc1ccc(NC2CCN(CCc3ccccc3)CC2)c(OC)c1`, the proliferation is inactive: -1.63%. The result for `CCOC(=O)N1CCC(Nc2ccc(F)cc2)CC1` reads inactive: -1.72%; that for `CCCCOc1ccc(C(=O)NCC2(N3CCOCC3)CCCCC2)cc1`, inactive: -3.22%.

As for `O=C(NCC1(N2CCCCC2)CCCCC1)c1ccc(F)cc1`, the proliferation is inactive: 0%. The result for `Cc1ccc(OCC(C)C)c(CN(CCCl)CCCl)c1` reads inactive: -2.15%. The result for `CCOC(=O)N1CCC(Nc2cccc(C)c2)CC1` reads inactive: 1.18%; that for `CC(C)(C)OC(=O)N1CCC(N(C(=O)c2ccccc2)c2ccc(F)cc2)CC1`, inactive: 2.68%. The value for `COc1ccc(C(=O)NCC2(N3CCCCC3)CCCCC2)c(OC)c1OC` was inactive: -2.74%; that for `COc1ccc(C(=O)NCC2(N3CCCCC3)CCCCC2)cc1` was inactive: 0%; that for `O=C(NCC1(N2CCCCC2)CCCCC1)c1cccs1` was inactive: 5.38%. With `O=C(NCC1(N2CCCCC2)CCCCC1)c1ccc(=O)[nH]c1`, the proliferation is inactive: -1.74%.

Regarding `CSc1ccccc1C(=O)NCC1(N2CCCCC2)CCCCC1`, the proliferation was inactive: 0%.

Regarding `Cc1cc(C)cc(N(C(=O)c2ccccc2)C2CCN(C(=O)OC(C)(C)C)CC2)c1`, the proliferation was inactive: -4.04%. The value for `O=C(NCC1(N2CCCCC2)CCCCC1)c1ccc(Cl)nc1` was inactive: 0.27%; that for `O=C(NCC1(N2CCOCC2)CCCCC1)c1cc2ccccc2o1` was inactive: -0.54%; that for `COc1ccc(Cl)cc1C(=O)NCC1(N2CCOCC2)CCCCC1` was inactive: 1.69%. The value for `N#CC1(Nc2ccccc2)CCN(Cc2ccccc2)CC1` was inactive: 0.82%. The value for `O=C(NCC1(N2CCCCC2)CCCCC1)c1ccc(Cl)s1` was inactive: -1.81%. Take `O=C(OC1CN2CCC1CC2)C1c2ccccc2Oc2ccccc21` (configuration not stated): the proliferation is inactive: -2.61%.

Turning to `CCOC(=O)N1CCC(Nc2ccc(OC)cc2)CC1`, the proliferation is inactive: 0.25%. The result for `CN1CCC(Nc2ccc(F)c(Cl)c2)CC1` reads inactive: -1.8%.

Take `CCOc1ncccc1C(=O)NCC1(N2CCOCC2)CCCCC1`: the proliferation was inactive: 2.1%. The value for `O=C(O)C1(Nc2ccccc2)CCN(Cc2ccccc2)CC1` was inactive: -1.68%; that for `CC(C)(C)OC(=O)N1CCC(Nc2ccccc2)CC1` was inactive: -0.86%; that for `CCCOc1ccc(C(=O)NCC2(N(C)C)CCCCC2)cc1` was inactive: 0.05%.

Turning to `COc1cc(OC)cc(C(=O)NCC2(N3CCOCC3)CCCCC2)c1`, the proliferation is inactive: 0.95%. The value for `COc1cccc(C(=O)N(c2cc(C)cc(C)c2)C2CCN(C(=O)OC(C)(C)C)CC2)c1` was inactive: -1.71%; that for `CCC(CO)(C(=O)OC1CN2CCC1CC2)c1ccccc1` (configuration not stated) was inactive: 1.09%; that for `CN1CCC(Nc2ccc(Cl)cc2)CC1` was inactive: 4.97%. On to `CCCOc1ccc(C)cc1CN(CCCl)CCCl`, for which the proliferation is inactive: -3.62%. On to `COc1cc(OC)cc(C(=O)NCC2(N3CCCCC3)CCCCC2)c1`, for which the proliferation was inactive: -3.24%. On to `Fc1ccccc1NC1CCN(Cc2ccccc2)CC1`, for which the proliferation is inactive: -0.48%. As to `Cc1ccc(C(=O)NCC2(N3CCCCC3)CCCCC2)o1`, the proliferation was inactive: 2.68%.

In the case of `CCN1CCC(Nc2cccc(F)c2)CC1`, the proliferation was inactive: -3.76%. The value for `CN(C)c1ccc(C(=O)NCC2(N3CCCCC3)CCCCC2)cc1` was inactive: -0.71%. The result for `O=C(NCC1(N2CCCCC2)CCCCC1)c1ccco1` reads inactive: 2.6%; that for `N#Cc1ccc(C(=O)NCC2(N3CCCCC3)CCCCC2)cc1`, inactive: -1.73%. Consider `CC(C)(C)OC(=O)N1CCC(N(C(=O)c2ccccc2)c2ccc(Cl)cc2)CC1`, for which the proliferation was inactive: -3.86%. The result for `CN(C)C1(CNC(=O)c2cccc(C#N)c2)CCCCC1` reads inactive: -3.72%; that for `CCCN1CCC(Nc2cc(OC)cc(OC)c2)CC1`, inactive: -3.76%.

With `c1ccc(CN2CCC(Nc3ccccc3)CC2)cc1`, the proliferation is inactive: 0.15%. In the case of `COc1cc(C(=O)NCC2(N3CCOCC3)CCCCC2)cc(OC)c1C`, the proliferation was inactive: 3.07%. `O=C(NCC1(N2CCOCC2)CCCCC1)c1cc(Br)ccc1Cl`: the proliferation is inactive: 6.27%. On to `COc1ccc(C(=O)NCC2(N3CCOCC3)CCCCC2)cc1OC`, for which the proliferation was inactive: 1.6%. As for `CCOC(=O)N1CCC(Nc2ccc(C)cc2)CC1`, the proliferation is inactive: -3.52%. With `N/C(=N\O)c1c(N)no[n+]1[O-]`, the proliferation is inactive: -2.32%. `CCc1cc(C(=O)NCC2(N3CCCCC3)CCCCC2)sc1C`: the proliferation was inactive: -3.94%. The result for `O=C(OC1CN2CCC1CC2)C1c2ccccc2C=Cc2ccccc21` (configuration not stated) reads inactive: -3.77%.
